Target: Epidermal growth factor receptor (Homo sapiens, UniProt P00533)
Experiment: In vitro inhibitory concentration against EGFR cytoplasmic sequence expressed in Sf9 cells

Chains of the proteins cited; added tags and fusions are not shown.
UniProt P00533, whole entry: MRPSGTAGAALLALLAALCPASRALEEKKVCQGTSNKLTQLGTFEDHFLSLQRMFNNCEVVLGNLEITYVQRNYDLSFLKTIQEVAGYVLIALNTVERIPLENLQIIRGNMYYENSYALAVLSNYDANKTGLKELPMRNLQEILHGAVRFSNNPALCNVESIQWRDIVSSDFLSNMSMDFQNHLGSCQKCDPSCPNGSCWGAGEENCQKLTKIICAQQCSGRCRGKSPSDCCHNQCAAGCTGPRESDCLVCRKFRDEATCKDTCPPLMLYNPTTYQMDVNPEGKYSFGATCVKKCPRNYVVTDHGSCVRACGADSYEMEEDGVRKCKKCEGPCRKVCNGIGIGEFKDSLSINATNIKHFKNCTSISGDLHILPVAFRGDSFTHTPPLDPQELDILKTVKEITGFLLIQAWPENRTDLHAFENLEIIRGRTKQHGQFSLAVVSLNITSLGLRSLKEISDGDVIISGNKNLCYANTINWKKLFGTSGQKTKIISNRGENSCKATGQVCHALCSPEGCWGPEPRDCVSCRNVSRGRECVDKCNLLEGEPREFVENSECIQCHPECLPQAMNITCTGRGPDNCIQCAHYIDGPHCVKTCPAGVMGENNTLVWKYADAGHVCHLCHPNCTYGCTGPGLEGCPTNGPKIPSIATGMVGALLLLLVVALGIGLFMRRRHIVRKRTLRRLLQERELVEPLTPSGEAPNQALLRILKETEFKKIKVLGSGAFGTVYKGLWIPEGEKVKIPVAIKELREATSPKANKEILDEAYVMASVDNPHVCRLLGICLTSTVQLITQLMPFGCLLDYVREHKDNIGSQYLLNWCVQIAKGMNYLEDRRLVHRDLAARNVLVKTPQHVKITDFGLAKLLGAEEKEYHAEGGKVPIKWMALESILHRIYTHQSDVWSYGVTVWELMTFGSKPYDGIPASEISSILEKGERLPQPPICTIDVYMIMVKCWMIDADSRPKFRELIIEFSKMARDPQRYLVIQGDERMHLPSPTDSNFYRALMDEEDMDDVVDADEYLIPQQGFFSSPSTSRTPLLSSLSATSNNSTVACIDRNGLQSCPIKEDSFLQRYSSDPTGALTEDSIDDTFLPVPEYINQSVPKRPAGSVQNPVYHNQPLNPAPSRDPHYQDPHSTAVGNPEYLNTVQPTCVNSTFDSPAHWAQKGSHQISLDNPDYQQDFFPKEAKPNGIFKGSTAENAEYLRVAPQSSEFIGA

Work on CCOC(=O)c1cn2ncnc(Nc3ccc4c(cnn4Cc4ccccc4)c3)c2c1C yielded an IC50 of 200 nM.

From ChEMBL document CHEMBL1140398, “New dual inhibitors of EGFR and HER2 protein tyrosine kinases” (Bioorg Med Chem Lett, 2005)
